Test results published in patent US20210261570A1, “ANTIBIOTIC RESISTANCE BREAKERS” (KING'S COLLEGE LONDON, priority 2017, published 2021).
Read-outs that look alike come from different tables or passages of the source.

Assay: Single dose pharmacokinetics study, oral and intravenous, blood and urine
Conditions: ICR (CD-1 IGS), in vivo, mouse; for Cmax: blood, read-out: Co/Cmax

Structure (SMILES): C[C@H]1COc2c(N3CCN(C)CC3)c(F)cc3c(=O)c(C(=O)O)cn1c23 [Levofloxacin, levofloxacin]
- Cmax (PO, 20.0 mg/kg, Mean): 8.16 µM
- Cmax (iv, 5.0 mg/kg, Composite Mean): 10.8 µM
- Bioavailability (%) Using AUCinf (po, 20 mg/kg): 40.7%
- CL_F (po, 20 mg/kg): 3.92 L/h/kg
- Clast (po, 20 mg/kg): 0.115 µg/mL
